Data reported in PubChem BioAssay AID588366 (Johns Hopkins Ion Channel Center, 2011).
The entries are a selection whose mix differs from that of the whole data set. The source made the active and inactive calls.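 The calls were made as follows: active = mean of duplicate thallium-flux fluorescence ratios in parental host cells more than 5 SD below the buffer control mean (cut at about 0.38 in these data); inactive = the rest.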

Test: thallium flux effects in parental CHO cells, counter-screen for KCNQ1 inhibitor project, cell-based, Tl flux (AID 588366);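 also: ratio is peak minus minimum fluorescence divided by baseline fluorescence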
Settings: parental CHO-K1, FluxOR thallium flux fluorescence ratio; at 10 µM; active compounds read low; zero means no signal rise above baseline
Outline: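 System: parental CHO-K1 cells lacking KCNQ1 channel expression. Probe or stimulus: depolarizing K2SO4 plus Tl2SO4 stimulus, each 12.5 mM in 5x stock. Times: 90 min dye load, 20 min compound, room temperature. Measured by: real-time thallium-sensitive FluxOR dye fluorescence reading. Read-out: baseline-normalized fluorescence amplitude ratio, averaged over duplicates. Repeats: duplicates.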
In the case of COc1cc(C(=O)NCC2(N3CCOCC3)CCCCC2)cc(Cl)c1OC(C)C, the fluorescence ratio (Tl flux) is reported as inactive: 0.476. For CCC1=CC2Cc3nc4ccc(Cl)cc4c(N)c3C(C1)C2 (configuration not stated), the fluorescence ratio (Tl flux) was inactive: 0.517.
